target: Pim-1 (Homo sapiens (Human), UniProt P11309); experiment: Pim kinase binding activity assay (Example 901), PIM-1 enzyme, Caliper microfluidic peptide phosphorylation; assay type: biochemical; conditions: 20 pM PIM-1, 10 μM ATP, 1 μM FAM-peptide, 90 minutes at room temperature
Method: Pim Kinase Binding Activity
A fluorescent-labeled Pim-specific peptide substrate, was custom synthesized by American Peptide Company (Sunnyvale, Calif.). Reaction Buffer contained 10 mM HEPES, pH 7.2, 10 mM MgCl2, 0.01% Tween 20, 2 mM DTT. Termination Buffer contained 190 mM HEPES, pH 7.2, 0.015% Brij-35, 0.2% Coating Reagent 3 (Caliper Life Sciences, Hopkinton, Mass.), 20 mM EDTA. Separation Buffer contained 100 mM HEPES, pH 7.2, 0.015% Brij-35, 0.1% Coating Reagent 3, 1:200 Coating Reagent 8 (Caliper Life Sciences, Hopkinton, Mass.), 10 mM EDTA and 5% DMSO.
PIM reactions were carried out in a final volume of 10 μL per well in a 384-well plate. A standard enzymatic reaction, initiated by the addition of 5 μL 2×ATP and test compound to 5 μL of 2× enzyme and FAM-peptide, contained 20 pM PIM-1, 50 pM PIM-2, or 55 pM PIM-3, 1 μM FAM-peptide, and 10 μM ATP, in Reaction Buffer. After 90 minutes of incubation at room temperature, the phosphorylation reaction was stopped by the addition of 10 μL Termination Buffer. The product and substrate in each independent reaction were separated on a 12-sipper microfluidic chip (Caliper Life Sciences, Hopkinton, Mass.) run on a Caliper LC3000® (Caliper Life Sciences, Hopkinton, Mass.). The separation of product and substrate was optimized by choosing voltages and pressure using Caliper's Optimizer software (Hopkinton, Mass.). […] The product and substrate fluorophore were excited at 488 nm and detected at 530 nm. Substrate conversion was calculated from the electropherogram using HTS Well Analyzer software (Caliper Life Sciences, Hopkinton, Mass.). Ki values for the test compound were calculated.

Amino acid sequences for entries named in this document (tags omitted).
UniProt P11309, whole entry: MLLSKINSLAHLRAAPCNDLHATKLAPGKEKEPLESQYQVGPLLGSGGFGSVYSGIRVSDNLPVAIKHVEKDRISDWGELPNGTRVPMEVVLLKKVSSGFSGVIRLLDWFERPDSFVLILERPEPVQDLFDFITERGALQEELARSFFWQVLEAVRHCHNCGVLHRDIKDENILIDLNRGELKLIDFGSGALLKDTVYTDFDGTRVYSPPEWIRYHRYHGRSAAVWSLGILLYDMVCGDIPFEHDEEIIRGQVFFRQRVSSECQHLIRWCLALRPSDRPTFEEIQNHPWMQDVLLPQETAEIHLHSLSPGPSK

Row | SMILES | Ki [nM]
1 | N[C@@H]1CCCN(c2ccncc2-c2cc3c(-c4ccccc4F)n[nH]c3cn2)C1 [Example 141, (R)1-(3-(3-(2-fluorophenyl)-1H-pyrazolo[3,4-c]pyridin-5-yl)pyridin-4-yl)piperidin-3-amine] | 142
2 | N[C@@H]1CCCN(c2cncc(-c3cc4c(-c5ccccc5F)n[nH]c4cn3)n2)C1 [Example 153, (R)-1-(6-(3-(2-fluorophenyl)-1H-pyrazolo[3,4-c]pyridin-5-yl)pyrazin-2-yl)piperidin-3-amine] | 0.114
3 | Cn1cc(-c2cc3c(-c4cccc(N5CCC[C@@H](N)C5)n4)n[nH]c3cn2)cn1 [Example 177, (R)-1-(6-(5-(1-methyl-1H-pyrazol-4-yl)-1H-pyrazolo[3,4-c]pyridin-3-yl)pyridin-2-yl)piperidin-3-amine] | 0.0355
4 | N[C@H]1CCCN(c2cncc(-c3cc4c(-c5ccccc5F)n[nH]c4cn3)n2)CC1 [Example 179, (S)-1-(6-(3-(2-fluorophenyl)-1H-pyrazolo[3,4-c]pyridin-5-yl)pyrazin-2-yl)azepan-4-amine] | 0.061
5 | Cn1cc(-c2cc3c(-c4cccc(N5CCCC(N)CC5)n4)n[nH]c3cn2)cn1 (stereo not shown) [Example 188, 1-(6-(5-(1-methyl-1H-pyrazol-4-yl)-1H-pyrazolo[3,4-c]pyridin-3-yl)pyridin-2-yl)azepan-4-amine] | 0.039
6 | Fc1ccccc1-c1n[nH]c2cnc(-c3cnccc3OC[C@@H]3CCCNC3)cc12 [Example 199, (R)-3-(2-fluorophenyl)-5-(4-(piperidin-3-ylmethoxy)pyridin-3-yl)-1H-pyrazolo[3,4-c]pyridine] | 0.354
7 | Fc1ccccc1-c1n[nH]c2cnc(-c3cnccc3OC[C@H]3CCCNC3)cc12 [Example 201, (S)-3-(2-fluorophenyl)-5-(4-(piperidin-3-ylmethoxy)pyridin-3-yl)-1H-pyrazolo[3,4-c]pyridine] | 1.52
8 | Fc1ccccc1-c1n[nH]c2cnc(-c3cnccc3NCC3CCNCC3)cc12 [Example 207, 3-(3-(2-fluorophenyl)-1H-pyrazolo[3,4-c]pyridin-5-yl)-N-(piperidin-4-ylmethyl)pyridin-4-amine] | 22.7
9 | N[C@@H]1CCCN(c2cccc(-c3n[nH]c4cnc(-c5cncc(F)c5)cc34)n2)C1 [Example 210, (R)-1-(6-(5-(5-fluoropyridin-3-yl)-1H-pyrazolo[3,4-c]pyridin-3-yl)pyridin-2-yl)piperidin-3-amine] | 0.206
10 | Nc1ncccc1-c1cc2c(-c3cccc(N4CCNCC4)n3)n[nH]c2cn1 [Example 238, 3-(3-(6-(piperazin-1-yl)pyridin-2-yl)-1H-pyrazolo[3,4-c]pyridin-5-yl)pyridin-2-amine] | 0.267
11 | O=C1CN(c2cccc(-c3n[nH]c4cnc(-c5cccnc5)cc34)n2)CCN1 [Example 279, 4-(6-(5-(pyridin-3-yl)-1H-pyrazolo[3,4-c]pyridin-3-yl)pyridin-2-yl)piperazin-2-one] | 0.351
12 | O=C1CNCCN1c1cccc(-c2n[nH]c3cnc(-c4cccnc4)cc23)n1 [Example 301, 1-(6-(5-(pyridin-3-yl)-1H-pyrazolo[3,4-c]pyridin-3-yl)pyridin-2-yl)piperazin-2-one] | 2.95
13 | N[C@H]1CCN(c2cccc(-c3n[nH]c4cnc(-c5cccnc5)cc34)n2)C1=O [Example 304, (S)-3-amino-1-(6-(5-(pyridin-3-yl)-1H-pyrazolo[3,4-c]pyridin-3-yl)pyridin-2-yl)pyrrolidin-2-one] | 0.556
14 | Cc1ccc(-c2n[nH]c3cnc(-c4cccnc4)cc23)nc1N1CCC[C@H](N)CC1 [Example 314, (S)-1-(3-methyl-6-(5-(pyridin-3-yl)-1H-pyrazolo[3,4-c]pyridin-3-yl)pyridin-2-yl)azepan-4-amine] | 0.025
15 | N[C@H]1CCCN(c2cccc(-c3n[nH]c4cnc(-c5cncs5)cc34)n2)C1 [Example 349, (S)-1-(6-(5-(thiazol-5-yl)-1H-pyrazolo[3,4-c]pyridin-3-yl)pyridin-2-yl)piperidin-3-amine] | 0.035
16 | N[C@@H]1CCCN(c2cccc(-c3n[nH]c4cnc(-c5cncs5)cc34)n2)C1 [Example 350, (R)-1-(6-(5-(thiazol-5-yl)-1H-pyrazolo[3,4-c]pyridin-3-yl)pyridin-2-yl)piperidin-3-amine] | 0.036
17 | Cn1ccc(-c2cc3c(-c4cccc(N5CCNCC5)n4)n[nH]c3cn2)cc1=O [Example 366, 1-methyl-4-(3-(6-(piperazin-1-yl)pyridin-2-yl)-1H-pyrazolo[3,4-c]pyridin-5-yl)pyridin-2(1H)-one] | 0.97
18 | COCCn1cc(-c2cc3c(-c4cccc(N5CCNCC5)n4)n[nH]c3cn2)cn1 [Example 382, 5-(1-(2-methoxyethyl)-1H-pyrazol-4-yl)-3-(6-(piperazin-1-yl)pyridin-2-yl)-1H-pyrazolo[3,4-c]pyridine] | 0.06
19 | N[C@H]1CCCN(c2nc(-c3n[nH]c4cnc(-c5cccnc5)cc34)ccc2C(F)(F)F)C1 [Example 386, (S)-1-(6-(5-(pyridin-3-yl)-1H-pyrazolo[3,4-c]pyridin-3-yl)-3-(trifluoromethyl)pyridin-2-yl)piperidin-3-amine] | 0.117
20 | CC(C)(O)Cn1cc(-c2cc3c(-c4cccc(N5CCNCC5)n4)n[nH]c3cn2)cn1 [Example 388, 2-methyl-1-(4-(3-(6-(piperazin-1-yl)pyridin-2-yl)-1H-pyrazolo[3,4-c]pyridin-5-yl)-1H-pyrazol-1-yl)propan-2-ol] | 0.138
21 | Cn1cc(-c2cc3c(-c4cccc(N5CCC[C@H](O)C5)n4)n[nH]c3cn2)cn1 [Example 442, (S)-1-(6-(5-(1-methyl-1H-pyrazol-4-yl)-1H-pyrazolo[3,4-c]pyridin-3-yl)pyridin-2-yl)piperidin-3-ol] | 0.154
22 | CCn1cc(-c2cc3c(-c4cccc(N5C[C@@H](C)N[C@@H](C)C5)n4)n[nH]c3cn2)cn1 [Example 444, 3-(6-((3S,5R)-3,5-dimethylpiperazin-1-yl)pyridin-2-yl)-5-(1-ethyl-1H-pyrazol-4-yl)-1H-pyrazolo[3,4-c]pyridine] | 0.07
23 | CCn1cc(-c2cc3c(-c4cccc(N5CCOCC5)n4)n[nH]c3cn2)cn1 [Example 450, 4-(6-(5-(1-ethyl-1H-pyrazol-4-yl)-1H-pyrazolo[3,4-c]pyridin-3-yl)pyridin-2-yl)morpholine] | 0.581
24 | Cn1cc(-c2cc3c(-c4cccc(N5CCC[C@@H](O)C5)n4)n[nH]c3cn2)cn1 [Example 451, (R)-1-(6-(5-(1-methyl-1H-pyrazol-4-yl)-1H-pyrazolo[3,4-c]pyridin-3-yl)pyridin-2-yl)piperidin-3-ol] | 0.106
25 | N[C@@H]1CCCC(c2cccc(-c3n[nH]c4cnc(-c5cccnc5)cc34)n2)C1 (stereo partly drawn) [Example 458, (1R)-3-(6-(5-(pyridin-3-yl)-1H-pyrazolo[3,4-c]pyridin-3-yl)pyridin-2-yl)cyclohexanamine] | 0.03
26 | N[C@H]1CCCC(c2cccc(-c3n[nH]c4cnc(-c5cccnc5)cc34)n2)C1 (stereo partly drawn) [Example 459, (1S)-3-(6-(5-(pyridin-3-yl)-1H-pyrazolo[3,4-c]pyridin-3-yl)pyridin-2-yl)cyclohexanamine] | 0.045
27 | c1cc(-c2n[nH]c3cnc(-c4cnn(CC5CC5)c4)cc23)nc(N2CCNCC2)c1 [Example 497, 5-(1-(cyclopropylmethyl)-1H-pyrazol-4-yl)-3-(6-(piperazin-1-yl)pyridin-2-yl)-1H-pyrazolo[3,4-c]pyridine] | 0.021
28 | CCn1cc(-c2cc3c(-c4cccc(N5CCNCC(C#N)C5)n4)n[nH]c3cn2)cn1 (stereo not shown) [Example 499, 1-(6-(5-(1-ethyl-1H-pyrazol-4-yl)-1H-pyrazolo[3,4-c]pyridin-3-yl)pyridin-2-yl)-1,4-diazepane-6-carbonitrile] | 0.072

— patent US9260425B2 (Genetech, Inc., priority 2011, dated 2016)
